# scFv variants of Ab-14 (heavy chain) against a SARS-CoV-2 spike peptide

Values reported by Li et al. 2023, doi:10.1038/s41467-023-39022-2 (FLAb copy).

Binding partner: SARS-CoV-2 spike HR2 peptide, sequence PDVDLGDISGINAS.

Parent scFv Ab-14: VH joined to VL by a (GGGGS)3 linker. Changes lie in the heavy chain CDRs alone.
VH: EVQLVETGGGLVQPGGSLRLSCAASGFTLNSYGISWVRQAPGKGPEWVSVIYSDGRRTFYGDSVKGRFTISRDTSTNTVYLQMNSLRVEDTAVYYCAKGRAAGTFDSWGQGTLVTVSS
VL: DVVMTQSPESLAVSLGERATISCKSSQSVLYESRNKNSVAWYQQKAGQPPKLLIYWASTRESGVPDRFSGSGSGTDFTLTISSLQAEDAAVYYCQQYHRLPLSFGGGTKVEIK

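The starting antibody came from a phage panning campaign against this peptide. Designed CDR sequences, proposed from the first random library and measured here. Group labels follow the data file (Ctrl: baseline library sampled from a position-specific scoring matrix, with some repeated check sequences; Rand: our label for a block that the file lists under HC and that is probably the random mutants of the ten best first-round binders; En: ensemble of fine-tuned language models; GP: Gaussian process model; GPLM: also part of the Gaussian process libraries; HC: hill climbing; Gen: genetic algorithm; Gibbs: Gibbs sampling; a sequence that several methods proposed may carry one label only). AlphaSeq pools MATa yeast showing the antibodies with MATalpha yeast showing the peptide. Pairs that bind mate more often; barcode pairs of the diploids are counted by sequencing. The ratio of observed to expected reads was calibrated, replicate by replicate, on BCL2-family standards whose Kd was known from biolayer interferometry. The assay was run in six technical replicates.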

The parent's heavy chain CDRs are GFTLNSYGIS, VIYSDGRRTFYGDSVK, GRAAGTFDS; each variant's own CDRs replace them letter for letter. Variants here have at most six changes. Kd is apparent (estimated from mating counts) and averaged on the log scale over replicates with a signal. Smaller is tighter. "nd" means that the variant was in the library but no mating with the target was seen in any replicate; the authors take this as a sign of poor binding, and no number exists. Background: pairings of all heavy chain designs with three empty control strains gave a value in 1% of cases (median 120 nM, 5th percentile 7.0 nM). Values in that range, when seen in few replicates, are hard to tell from nonspecific mating. Also given: how often the same scFv was detected with the empty control strains.

Variant GFTLNSYGIS, VIYSDGRRTQYGDSVK, GRAQGTFDS [Ctrl] gave nd (0 of 6 replicates; controls 0 of 18).
Variant GFTLNSYGIS, VIYSDGRRTFYHDSVK, GQAAGAKNS [Ctrl] gave nd (0 of 6 replicates; controls 0 of 18).
Variant GFTLNSQGIS, VIYSDGRRTFYGDSVK, GRAKGTFDS [Ctrl] gave nd (0 of 6 replicates; controls 0 of 18).
Variant GFGLNDYGIS, VIYSDGRRTFYGDSVK, GRQAGTFDT [GP_Gibbs] gave 1.8 nM (6 of 6 replicates; controls 0 of 18).
Variant GFTLNDYGIS, VIYSDGRRTFYIDAVK, GNAAGTFDS [GP_HC] gave 79 nM (1 of 6 replicates; controls 0 of 18).
Variant GFTRNSYGIS, VIYSDGRRTFYGDSVK, GRAAGTFTS [Ctrl] gave nd (0 of 6 replicates; controls 0 of 18).
Variant GYTLNEYGIS, VIYSDGRRTFYGDSVK, GRAAGTMDS [Ctrl] gave nd (0 of 6 replicates; controls 0 of 18).
Variant GFTLNSYGIS, VIYSDGRRTFYGDSVK, GRHIGTFDS [Ctrl] gave 10 nM (3 of 6 replicates; controls 0 of 18).
Variant GFTLSEYGIS, VIYSDGRRTFYGDLVK, GRAAGAFHS [Ctrl] gave 170 nM (2 of 6 replicates; controls 0 of 18).
Variant GFTLNSYGWS, VIYSDGRHTFYDDSVK, GQLAGTFDS [Rand] gave nd (0 of 6 replicates; controls 0 of 18).
Variant GFQLNSYGIS, VIYSDGRRTFYGDSVK, GQTAGTFDS [GP_Gen] gave 18 nM (6 of 6 replicates; controls 0 of 18).
Variant GFSLNSYGIS, VIYSDGRRTFYGDSVK, GQTAGTFDK [GPLM_Gen] gave 2.2 nM (6 of 6 replicates; controls 0 of 18).
Variant GFSLNSYGIS, VIYSDGRRTFYGDSVK, GRMAGTFDT [GPLM_Gibbs] gave 8.6 nM (6 of 6 replicates; controls 0 of 18).
Variant KFTLNSYGIS, VIYSDGRRTSYGDSVK, GRVAGTFDS [Ctrl] gave nd (0 of 6 replicates; controls 0 of 18).
Variant GFELNSYGIS, VIYADGRRTFYIDSVK, GKAAGTFDS [GP_Gibbs] gave 1.3 nM (6 of 6 replicates; controls 0 of 18).
Variant GFTLNSYGIS, VIYSDGRRTFYGDSVK, GRACGTFDS [Ctrl] gave nd (0 of 6 replicates; controls 0 of 18).
Variant GFTLNDYGIS, VIYSDGRRTFYGDSVK, GRAAGTFRK [GPLM_HC] gave nd (0 of 6 replicates; controls 0 of 18).
Variant GFPLNDYGIS, VIYSDGRRTFYGDSVK, GKAAGTFDS [GP_HC] gave 6.2 nM (5 of 6 replicates; controls 0 of 18).
Variant GFTLNEYGIS, VIYSDGRRTFYGDSVK, GEAAGTFDL [GPLM_Gen] gave nd (0 of 6 replicates; controls 0 of 18).
Variant GFTNNSYGIS, VIYSDGRRTYYGDSVV, GELAGTFDN [Ctrl] gave 850 nM (1 of 6 replicates; controls 0 of 18).
Variant GFTLNSYGIS, VIYSDGVRTAYGDSVK, GRAAGTFDS [Ctrl] gave 14 nM (1 of 6 replicates; controls 0 of 18).
Variant GFDLNSYGIS, VIYSDGRRTFYDDSVK, GRNAGTFDS [GPLM_Gibbs] gave 2.3 nM (6 of 6 replicates; controls 2 of 18).
Variant GFGLNSYGIS, VIYSDGRRTFYGDSVK, GYAAGTFDS [Ctrl] gave 31 nM (5 of 6 replicates; controls 0 of 18).
Variant GFTLNSYGIS, VIYSDGRRTFYIDAVK, GREAGTFDS [Ctrl] gave nd (0 of 6 replicates; controls 0 of 18).
Variant GFTLEDYGIS, VIYSDGRRTFYGDKVK, GRAAGTFDS [Ctrl] gave 46 nM (6 of 6 replicates; controls 0 of 18).
Variant GFTLNSYGIS, VIYSDGRRTFYGDSVK, GGAAGTFDT [Ctrl] gave 11 nM (6 of 6 replicates; controls 0 of 18).
Variant GFNLNSYGIS, VIYSDGRRTFYGDNVK, GQEAGTFDS [GP_Gibbs] gave 3.7 nM (6 of 6 replicates; controls 0 of 18).
Variant GFTLNSYGIS, VIYSDGMRTFYSDSVK, GREAGTFFS [GP_HC] gave nd (0 of 6 replicates; controls 0 of 18).
Variant GFTLNEYGIS, VIYSDGRRTFYDDSVK, GQLAGTFDS [GPLM_HC] gave 1.1 nM (6 of 6 replicates; controls 1 of 18).
Variant GFDLNSYGIS, VIYSDGRRTFYGDSVK, NYAAGTFDS [Ctrl] gave nd (0 of 6 replicates; controls 0 of 18).
Variant GFTLNSYGIS, VIYSDGRRTFYDDEVK, GRAAGTFDS [Ctrl] gave nd (0 of 6 replicates; controls 0 of 18).
Variant GFELNEYGIS, VIYSDGRRTFYGDAVK, GKTAGTFDS [GP_Gen] gave 4.4 nM (3 of 6 replicates; controls 0 of 18).
Variant GFTLNDYGIS, VIYSDGRRTYYGESVK, GRAAGTFDS [GP_HC] gave 5.1 nM (3 of 6 replicates; controls 0 of 18).
Variant GFTLNSYGIS, VIYSDGERTEYGDSVK, GRAAGTAVS [Ctrl] gave nd (0 of 6 replicates; controls 0 of 18).
Variant GFTLNDYGIS, VIYSDGRRTWYSDSVK, GRAAGTFDS [GPLM_HC] gave 34 nM (4 of 6 replicates; controls 0 of 18).
Variant GFTLNSYGIS, VIYSDGRRTFYGDKVK, GRTAGTFDS [Ctrl] gave 45 nM (4 of 6 replicates; controls 0 of 18).
Variant GFTLNSYGIS, VIYSDGRRTFYSDSVR, GREAGTFDS [Ctrl] gave 1.2 nM (6 of 6 replicates; controls 0 of 18).
Variant GFTLNSYGIS, VIYSDGRRTFYDDSVK, GREALTFDT [Ctrl] gave nd (0 of 6 replicates; controls 0 of 18).
Variant GFTLNSYGIS, VDYSDGRRTFYGDSVK, GNAAGTKDS [Ctrl] gave nd (0 of 6 replicates; controls 0 of 18).
Variant GFSLNEYGIS, VIYSDGRRTFYGDQVK, GRAAGTFDS [GP_Gen] gave 2.8 nM (6 of 6 replicates; controls 1 of 18).
Variant GFTLNSYGIS, VIYSDGRRTFYGDSVR, GRAAGTFDW [Ctrl] gave nd (0 of 6 replicates; controls 0 of 18).
Variant GFTLESYGIS, VIYSDGRRTFYGDSVK, GRAATTFDS [Ctrl] gave nd (0 of 6 replicates; controls 0 of 18).
Variant GFTLDSYGIS, VIYSDGRRTFYGDSVK, GREAGTFDS [GPLM_Gen] gave 2.1 nM (5 of 6 replicates; controls 0 of 18).
Variant KFSLNSYGIS, VIYSDGKRTFYSDSVK, GRQAGTFDS [GP_Gibbs] gave nd (0 of 6 replicates; controls 0 of 18).
Variant GFDLNSYGIS, VIYSDGRRTFYADQVK, GKTAGTFDS [GP_Gen] gave 1.5 nM (6 of 6 replicates; controls 2 of 18).
Variant GFDLNEYGIS, VIYADGRRTFYTDSVK, GQLAGTFDS [En_HC] gave 290 pM (6 of 6 replicates; controls 1 of 18).
Variant GFTLMSYGIS, VIYSDGRRTAYGDSVR, GRAAGTFDS [Ctrl] gave 110 nM (3 of 6 replicates; controls 0 of 18).

Excerpt, the final 6 entries:

CDR-H1	CDR-H2	CDR-H3	group	Kd (apparent)	detected	control signals
GFTLESYGIS	VIYSDGRRTFYGDSVK	GRAATTFDS	Ctrl	nd	0/6	0/18
GFTLDSYGIS	VIYSDGRRTFYGDSVK	GREAGTFDS	GPLM_Gen	2.1 nM	5/6	0/18
KFSLNSYGIS	VIYSDGKRTFYSDSVK	GRQAGTFDS	GP_Gibbs	nd	0/6	0/18
GFDLNSYGIS	VIYSDGRRTFYADQVK	GKTAGTFDS	GP_Gen	1.5 nM	6/6	2/18
GFDLNEYGIS	VIYADGRRTFYTDSVK	GQLAGTFDS	En_HC	290 pM	6/6	1/18
GFTLMSYGIS	VIYSDGRRTAYGDSVR	GRAAGTFDS	Ctrl	110 nM	3/6	0/18

Values of this round are not directly comparable with the first-round values of the same sequences. The authors averaged sequences with at least three values out of six and counted those with two or fewer as poor binders. The parent sequence was in this pool as ten entries: three were never detected, three once, and four in most replicates, with averages from 2.2 nM to 240 nM.